Reference: PubChem BioAssay (NCATS)
Where “and” joins values, the source holds several entries; their conditions need not be identical. Equal values may be shown once. Only a part is listed here, and it is no random draw. Records with an inconclusive call do not appear. Calls of active or inactive are those of the source. Unless noted, no rule for the calls is given here.

By UniProt entry, the sequences of proteins in these tests, tags left out.
UniProt Q9R1A7, whole entry: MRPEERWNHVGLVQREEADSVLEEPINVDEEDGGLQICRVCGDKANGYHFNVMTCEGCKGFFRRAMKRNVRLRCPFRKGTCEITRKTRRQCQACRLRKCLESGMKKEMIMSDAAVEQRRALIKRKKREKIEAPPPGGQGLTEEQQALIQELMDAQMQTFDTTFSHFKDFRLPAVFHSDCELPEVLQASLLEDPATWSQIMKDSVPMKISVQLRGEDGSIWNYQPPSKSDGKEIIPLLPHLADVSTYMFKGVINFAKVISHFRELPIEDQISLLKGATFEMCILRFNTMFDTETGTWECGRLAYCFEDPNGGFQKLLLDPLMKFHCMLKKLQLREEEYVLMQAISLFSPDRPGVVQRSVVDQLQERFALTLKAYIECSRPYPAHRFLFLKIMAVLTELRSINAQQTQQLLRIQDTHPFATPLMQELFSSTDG

Experiments:
[1] = molecular target: Nuclear receptor subfamily 1 group I member 2 (Rattus norvegicus) (UniProt Q9R1A7); assay: qHTS assay for small molecule activators of the rat pregnane X receptor (rPXR) signaling pathway (AID 651751); conditions: rPXR reporter cells, luciferase (One-Glo), 24 h; also: 0% is about no effect
[2] = qHTS assay for small molecule activators of the human pregnane X receptor (PXR) signaling pathway (AID 720659); conditions: DPX-2 HepG2 CYP3A4-luciferase, 24 h; at 92.3 µM (top of the series); also: 0% is about no effect
Tov-21-G = assay: Primary qHTS to identify gynecologic anti-cancer compounds using libraries of approved drugs and bioactive compounds (AID 1345084; active = well fitted cell-killing curve with a large enough effect; also: % is scaled to controls: 0 for no effect and ±100 for the full control effect; nearly all actives have a fitted effect of over 55% in size); conditions: Gynecologic cancer cell panel viability, ATPlite luminescence, 48 h; at 57.5 µM (top of the series)
Summary of the method: (§1)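 Luminescence from the ATPlite ATP-monitoring reagent indicates viable cell number; lower signal means cytotoxicity. Cells received compound 16 h after seeding and were exposed for 48 h across five concentrations.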

Tov112D = assay: as above; conditions: Gynecologic cancer cell panel viability, ATPlite luminescence, 48 h; at 57.5 µM (top of the series)
Summary of the method: as §1

In the case of `ClCCOP(OCCCl)OCCCl`, the max response [1] is reported as inactive: 0.193% and the activation [2] is reported as inactive: -16%.
With `CCOC(=O)N1CCC(=O)CC1` the activity change, negative = cytotoxicity (Tov-21-G) was inactive: 16.3% and the activity change, negative = cytotoxicity (Tov112D) was inactive: 5.68%.
In the case of `CCOP(=O)(Cl)Cl`, the max response [1] is reported as inactive: 8.1% and inactive: 2.92% and the activation [2] is reported as inactive: -2.92% and inactive: 24.4%.
With `CCC(=O)N(c1ccccc1)C1CCNCC1` the activity change, negative = cytotoxicity (Tov-21-G) was inactive: 4.98% and the activity change, negative = cytotoxicity (Tov112D) was inactive: -1.11%.
With `O=[N+]([O-])c1ccccc1[N+](=O)[O-]` the max response [1] was inactive: -0.539%.
In the case of `CC(=O)N1CCc2ccc(N(C(=O)/C=C/c3cccc(C#N)c3)C3CCN(CCC4CCCC4)CC3)cc21`, the activity change, negative = cytotoxicity (Tov-21-G) is reported as inactive: 1.79% and the activity change, negative = cytotoxicity (Tov112D) is reported as inactive: 16.8%.
